Reference: patent US7691387B2, “Cinnamomi and poria composition, method to prepare same and uses thereof” (Jiangsu Kanion Pharmaceutical Co., Ltd, priority 2000, dated 2010)

Legend:
Type in all cases: cell-based
S. Typhimurium TA97 = assay: Ames test, TA97; conditions: TA 97; 10.0 μg/plate
S. Typhimurium TA98 = assay: Ames test, TA98; conditions: TA 98; 10.0 μg/plate
S. Typhimurium TA100 = assay: Ames test, TA100; conditions: TA 100; 10.0 μg/plate
S. Typhimurium TA102 = assay: Ames test, TA102; conditions: TA 102; 10.0 μg/plate
[1] = test system: Syrian Hamster embryo (SHE) cell; assay: Cellular malignancy transformation test, colony forming efficiency (CE); conditions: SHE cells, 5.0 mg/flask, 24 h exposure

| Substance | Back Mutation Colony (S. Typhimurium TA97) [colony/plate] | Back Mutation Colony (S. Typhimurium TA98) [colony/plate] | Back Mutation Colony (S. Typhimurium TA100) [colony/plate] | Back Mutation Colony (S. Typhimurium TA102) [colony/plate] | Malignant transformed cell colony (CE) [1] | Normal cell colony (CE) [1] |
| --- | --- | --- | --- | --- | --- | --- |
| 2-amino fluorine | 1109.7 ± 58.8 | 1131.7 ± 233.32 | 1095.7 ± 118.2 | 1080.0 ± 89.4 | – | – |
| MNNG | – | – | – | – | 4.4 ± 3.7 | 2.6 ± 4.5 |
